In US9034887B2, “Dihydroorotate dehydrogenase as antifungal drug target and quinazolinone-based inhibitors thereof” (F2G Limited, priority 2008, dated 2015):
Like-named read-outs stand apart in the source and are kept apart here.

Chains of the proteins cited; added tags and fusions are not shown. Residues count along the entry.
UniProt Q02127, 31-395 limits assumed: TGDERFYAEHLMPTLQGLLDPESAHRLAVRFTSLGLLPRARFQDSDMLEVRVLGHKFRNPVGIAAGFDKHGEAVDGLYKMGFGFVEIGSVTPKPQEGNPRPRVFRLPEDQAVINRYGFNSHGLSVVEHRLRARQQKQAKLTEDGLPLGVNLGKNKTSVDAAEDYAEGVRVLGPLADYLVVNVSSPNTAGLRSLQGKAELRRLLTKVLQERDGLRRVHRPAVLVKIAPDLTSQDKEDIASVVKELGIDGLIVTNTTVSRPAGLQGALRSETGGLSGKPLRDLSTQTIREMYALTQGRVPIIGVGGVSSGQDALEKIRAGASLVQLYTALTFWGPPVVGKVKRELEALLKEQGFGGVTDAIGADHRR

Target: Recombinant DHODH from human (Homo sapiens, UniProt Q02127)
Experiment: DHODH inhibition screen (DCIP reduction, 600 nm), human enzyme
Type: biochemical
[1] = read-out: IC50 values for Compound Examples 1 to 15 identified from screens, Human, Table 3
[2] = read-out: IC50 values for DHODH inhibitors identified from screens, Human, Table 1, 34 minutes incubation

Question: How did the IC50 [1] turn out when `COc1ccccc1-n1c(SC(C)C)nc2cc(C)ccc2c1=O` [Compound Example 1, 2-Isopropylsulfanyl-3-(2-methoxy-phenyl)-7-methyl-3H-quinazolin-4-one] was run?
Answer: 51.3 µM

Question: And the IC50 [2]?
Answer: 8.6 µM

Question: Which results are given for `COc1ccccc1-n1c(SC(C)C)nc2ccc(C)cc2c1=O` [Compound Example 2, 2-Isopropylsulfanyl-3-(2-methoxy-phenyl)-6-methyl-3H-quinazolin-4-one]?
Answer: IC50 [1]: 6.54 µM; IC50 [2]: > 128 µM

Question: Which IC50 [1] does the source give for `COc1ccccc1-n1c(SC(C)C)nc2cccc(C)c2c1=O` [Compound Example 3, 2-Isopropylsulfanyl-3-(2-methoxy-phenyl)-5-methyl-3H-quinazolin-4-one] here?
Answer: 40.2 µM

Question: And the IC50 [2]?
Answer: > 133 µM
